{
  "sequences": {"note": "Chains of the proteins cited; added tags and fusions are not shown.", "UniProt P14735, whole entry": "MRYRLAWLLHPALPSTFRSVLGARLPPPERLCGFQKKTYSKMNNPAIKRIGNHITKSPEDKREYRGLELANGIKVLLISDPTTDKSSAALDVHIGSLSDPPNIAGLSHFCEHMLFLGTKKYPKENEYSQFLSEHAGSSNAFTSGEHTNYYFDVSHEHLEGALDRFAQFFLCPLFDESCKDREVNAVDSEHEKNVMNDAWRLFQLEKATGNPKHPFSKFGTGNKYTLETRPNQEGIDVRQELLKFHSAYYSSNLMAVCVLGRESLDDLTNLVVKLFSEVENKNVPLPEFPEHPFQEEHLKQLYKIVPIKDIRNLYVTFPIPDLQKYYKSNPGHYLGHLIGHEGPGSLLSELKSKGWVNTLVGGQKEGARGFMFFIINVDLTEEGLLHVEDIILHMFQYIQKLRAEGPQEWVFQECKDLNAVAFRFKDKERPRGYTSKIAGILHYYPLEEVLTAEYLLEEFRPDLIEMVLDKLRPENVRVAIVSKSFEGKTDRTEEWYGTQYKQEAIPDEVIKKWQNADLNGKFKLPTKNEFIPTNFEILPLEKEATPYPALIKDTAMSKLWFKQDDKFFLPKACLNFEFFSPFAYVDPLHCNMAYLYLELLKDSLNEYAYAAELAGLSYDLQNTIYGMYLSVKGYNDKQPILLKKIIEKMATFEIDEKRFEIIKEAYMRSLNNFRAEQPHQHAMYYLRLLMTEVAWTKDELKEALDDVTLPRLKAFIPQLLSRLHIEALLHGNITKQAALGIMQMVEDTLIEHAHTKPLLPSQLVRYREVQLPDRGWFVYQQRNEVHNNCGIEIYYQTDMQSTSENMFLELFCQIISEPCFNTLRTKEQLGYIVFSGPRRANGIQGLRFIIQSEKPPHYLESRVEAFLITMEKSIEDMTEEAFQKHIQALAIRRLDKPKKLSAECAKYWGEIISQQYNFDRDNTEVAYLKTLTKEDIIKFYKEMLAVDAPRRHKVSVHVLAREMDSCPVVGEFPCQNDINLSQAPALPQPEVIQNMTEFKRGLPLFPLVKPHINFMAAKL"},
  "source": "PubChem BioAssay AID434962",
  "about": "(The Scripps Research Institute Molecular Screening Center, 2010)",
  "note": "This is a selection; strong and weak results do not stand in their true shares. Activity calls are given as the source filed them.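 The calls were made as follows: active = percent inhibition above the average of all tested compounds plus 3 SD, set per screening campaign (cut at about 16% in these data); inactive = the rest.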",
  "data": [
    {"biological_target": "Insulin-degrading enzyme (Homo sapiens) (UniProt P14735)", "assay": "cellular IDE Abeta-cleavage inhibition – fluorescence polarization, HEK cells, FAbetaB substrate, primary screen (AID 434962);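 also: IDE supplied by intact live HEK cells; FP after avidin binding of uncleaved biotin substrate so inhibition keeps polarization high; 0% = DMSO wells and 100% = 60 µM reference IDE inhibitor Ii1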", "details": "at 5.59 µM, active compounds read high", "values": [
      {"smiles": "COc1ccc(C(=O)NCC2(N3CCOCC3)CCCCC2)cc1OC", "inhibition": "inactive: -8.58%"},
      {"smiles": "O=C(NCC1(N2CCOCC2)CCCCC1)c1cc(Br)ccc1Cl", "inhibition": "inactive: 0.39%"},
      {"smiles": "COc1cc(C(=O)NCC2(N3CCOCC3)CCCCC2)cc(OC)c1C", "inhibition": "inactive: -3.91%"},
      {"smiles": "CCc1cc(C(=O)NCC2(N3CCCCC3)CCCCC2)sc1C", "inhibition": "inactive: 0.84%"},
      {"smiles": "O=C(OC1CN2CCC1CC2)C1c2ccccc2C=Cc2ccccc21", "note": "(stereo not drawn)", "inhibition": "inactive: 5.17%"},
      {"smiles": "N/C(=N\\O)c1c(N)no[n+]1[O-]", "inhibition": "inactive: -4.78%"},
      {"smiles": "CCOC(=O)N1CCC(Nc2ccc(C)cc2)CC1", "inhibition": "inactive: 0.79%"},
      {"smiles": "CC(C)(C)OC(=O)N1CCC(N(C(=O)c2ccccc2)c2ccc(Cl)cc2)CC1", "inhibition": "inactive: 5.64%"},
      {"smiles": "N#Cc1ccc(C(=O)NCC2(N3CCCCC3)CCCCC2)cc1", "inhibition": "inactive: 0.09%"},
      {"smiles": "CCCN1CCC(Nc2cc(OC)cc(OC)c2)CC1", "inhibition": "inactive: -1.12%"},
      {"smiles": "c1ccc(CN2CCC(Nc3ccccc3)CC2)cc1", "inhibition": "inactive: -0.98%"},
      {"smiles": "CN(C)C1(CNC(=O)c2cccc(C#N)c2)CCCCC1", "inhibition": "inactive: -1.2%"},
      {"smiles": "Fc1ccccc1NC1CCN(Cc2ccccc2)CC1", "inhibition": "inactive: 1.9%"},
      {"smiles": "Cc1ccc(C(=O)NCC2(N3CCCCC3)CCCCC2)o1", "inhibition": "inactive: -11.1%"},
      {"smiles": "COc1cc(OC)cc(C(=O)NCC2(N3CCCCC3)CCCCC2)c1", "inhibition": "inactive: -2.4%"},
      {"smiles": "CN(C)c1ccc(C(=O)NCC2(N3CCCCC3)CCCCC2)cc1", "inhibition": "inactive: -6.16%"},
      {"smiles": "O=C(NCC1(N2CCCCC2)CCCCC1)c1ccco1", "inhibition": "inactive: -6.84%"},
      {"smiles": "CCN1CCC(Nc2cccc(F)c2)CC1", "inhibition": "inactive: 6.28%"},
      {"smiles": "CCCOc1ccc(C(=O)NCC2(N(C)C)CCCCC2)cc1", "inhibition": "inactive: -2.25%"},
      {"smiles": "O=C(O)C1(Nc2ccccc2)CCN(Cc2ccccc2)CC1", "inhibition": "inactive: -1.81%"},
      {"smiles": "CC(C)(C)OC(=O)N1CCC(Nc2ccccc2)CC1", "inhibition": "inactive: -3.05%"},
      {"smiles": "CN1CCC(Nc2ccc(F)c(Cl)c2)CC1", "inhibition": "inactive: 1.8%"},
      {"smiles": "CCOc1ncccc1C(=O)NCC1(N2CCOCC2)CCCCC1", "inhibition": "inactive: -2.05%"},
      {"smiles": "CCCOc1ccc(C)cc1CN(CCCl)CCCl", "inhibition": "inactive: 1.55%"},
      {"smiles": "CN1CCC(Nc2ccc(Cl)cc2)CC1", "inhibition": "inactive: -2.02%"},
      {"smiles": "CCC(CO)(C(=O)OC1CN2CCC1CC2)c1ccccc1", "note": "(stereo not drawn)", "inhibition": "inactive: -0.38%"},
      {"smiles": "COc1cc(OC)cc(C(=O)NCC2(N3CCOCC3)CCCCC2)c1", "inhibition": "inactive: -0.58%"},
      {"smiles": "COc1cccc(C(=O)N(c2cc(C)cc(C)c2)C2CCN(C(=O)OC(C)(C)C)CC2)c1", "inhibition": "inactive: 5.62%"},
      {"smiles": "CSc1ccccc1C(=O)NCC1(N2CCCCC2)CCCCC1", "inhibition": "inactive: 4.72%"},
      {"smiles": "O=C(NCC1(N2CCCCC2)CCCCC1)c1cccs1", "inhibition": "inactive: -2.07%"},
      {"smiles": "O=C(NCC1(N2CCCCC2)CCCCC1)c1ccc(=O)[nH]c1", "inhibition": "inactive: 2.21%"},
      {"smiles": "CC(C)(C)OC(=O)N1CCC(N(C(=O)c2ccccc2)c2ccc(F)cc2)CC1", "inhibition": "inactive: 5.02%"},
      {"smiles": "COc1ccc(C(=O)NCC2(N3CCCCC3)CCCCC2)c(OC)c1OC", "inhibition": "inactive: -3.41%"},
      {"smiles": "COc1ccc(C(=O)NCC2(N3CCCCC3)CCCCC2)cc1", "inhibition": "inactive: 5.31%"},
      {"smiles": "CCOC(=O)N1CCC(Nc2ccc(OC)cc2)CC1", "inhibition": "inactive: -2.02%"},
      {"smiles": "COc1ccc(Cl)cc1C(=O)NCC1(N2CCOCC2)CCCCC1", "inhibition": "inactive: 6.05%"},
      {"smiles": "O=C(NCC1(N2CCCCC2)CCCCC1)c1ccc(Cl)s1", "inhibition": "inactive: 3.38%"},
      {"smiles": "N#CC1(Nc2ccccc2)CCN(Cc2ccccc2)CC1", "inhibition": "inactive: -7.29%"},
      {"smiles": "O=C(OC1CN2CCC1CC2)C1c2ccccc2Oc2ccccc21", "note": "(stereo not drawn)", "inhibition": "inactive: 0.82%"},
      {"smiles": "O=C(NCC1(N2CCOCC2)CCCCC1)c1cc2ccccc2o1", "inhibition": "inactive: 4.12%"},
      {"smiles": "Cc1cc(C)cc(N(C(=O)c2ccccc2)C2CCN(C(=O)OC(C)(C)C)CC2)c1", "inhibition": "inactive: 10.5%"},
      {"smiles": "O=C(NCC1(N2CCCCC2)CCCCC1)c1ccc(Cl)nc1", "inhibition": "inactive: 3.68%"},
      {"smiles": "COc1ccc(NC2CCN(CCc3ccccc3)CC2)c(OC)c1", "inhibition": "inactive: 3.25%"},
      {"smiles": "O=C(NCC1(N2CCCCC2)CCCCC1)c1ccc(F)cc1", "inhibition": "inactive: -8.66%"},
      {"smiles": "CCOc1ccc(C)cc1CN(CCCl)CCCl", "inhibition": "inactive: 2.44%"},
      {"smiles": "Cc1ccc(OCC(C)C)c(CN(CCCl)CCCl)c1", "inhibition": "inactive: -0.68%"},
      {"smiles": "CCOC(=O)N1CCC(Nc2cccc(C)c2)CC1", "inhibition": "inactive: 1.34%"},
      {"smiles": "O=C(NCC1(N2CCCCC2)CCCCC1)c1cccc([N+](=O)[O-])c1", "inhibition": "inactive: 4.03%"},
      {"smiles": "N#CC1(Nc2ccccc2)CCN(CCc2ccccc2)CC1", "inhibition": "inactive: 2.91%"},
      {"smiles": "CCN1CCC(Nc2ccc(Cl)cc2)CC1", "inhibition": "inactive: 0.98%"},
      {"smiles": "O=C(NCC1(N2CCCCC2)CCCCC1)c1ccc(OC(F)F)cc1", "inhibition": "inactive: -0.01%"},
      {"smiles": "CN1CCN(CCOC(=O)C(O)(c2ccccc2)c2ccccc2)CC1", "inhibition": "inactive: 2.88%"},
      {"smiles": "COc1ccc(NC2CCN(C(=O)OC(C)(C)C)CC2)cc1", "inhibition": "inactive: 5.16%"},
      {"smiles": "COc1cc(C(=O)NCC2(N3CCCCC3)CCCCC2)ccc1OC(F)F", "inhibition": "inactive: 2.89%"},
      {"smiles": "O=C(NCC1(N2CCOCC2)CCCCC1)c1cc(=O)[nH]c2ccccc12", "inhibition": "inactive: -3.87%"},
      {"smiles": "O=C(NCC1(N2CCCCC2)CCCCC1)c1cccc(C(F)(F)F)c1", "inhibition": "inactive: -0.06%"},
      {"smiles": "O=C(NCC1(N2CCOCC2)CCCCC1)c1cc(F)c(F)cc1Cl", "inhibition": "inactive: 3.35%"},
      {"smiles": "COc1cc(OC)c(C(=O)NCC2(N(C)C)CCCCC2)cc1OC", "inhibition": "inactive: -7.38%"},
      {"smiles": "CN(C)c1cccc(C(=O)NCC2(N3CCCCC3)CCCCC2)c1", "inhibition": "inactive: 3.67%"},
      {"smiles": "COc1ccc(CN(CCCl)CCCl)cc1Cl", "inhibition": "inactive: 0.8%"},
      {"smiles": "CC(C)c1ccc(NC2CCN(C(=O)OC(C)(C)C)CC2)cc1", "inhibition": "inactive: 3.63%"},
      {"smiles": "CN1CCC(Nc2cccc(F)c2)CC1", "inhibition": "inactive: -3.65%"},
      {"smiles": "O=C(NCC1(N2CCCCC2)CCCCC1)c1cncc(Br)c1", "inhibition": "inactive: -1.93%"}
    ]}
  ]
}
